Source: ChEMBL document CHEMBL1649422, “Synthesis and molecular modeling of novel tetrahydro-β-carboline derivatives with phosphodiesterase 5 inhibitory and anticancer properties” (J Med Chem, 2011)

The chains behind the UniProt entries cited, without tags or fusion partners. Where a name states a change or a piece, a line headed by the entry shows the natural chain unless it says otherwise.
UniProt Q07343: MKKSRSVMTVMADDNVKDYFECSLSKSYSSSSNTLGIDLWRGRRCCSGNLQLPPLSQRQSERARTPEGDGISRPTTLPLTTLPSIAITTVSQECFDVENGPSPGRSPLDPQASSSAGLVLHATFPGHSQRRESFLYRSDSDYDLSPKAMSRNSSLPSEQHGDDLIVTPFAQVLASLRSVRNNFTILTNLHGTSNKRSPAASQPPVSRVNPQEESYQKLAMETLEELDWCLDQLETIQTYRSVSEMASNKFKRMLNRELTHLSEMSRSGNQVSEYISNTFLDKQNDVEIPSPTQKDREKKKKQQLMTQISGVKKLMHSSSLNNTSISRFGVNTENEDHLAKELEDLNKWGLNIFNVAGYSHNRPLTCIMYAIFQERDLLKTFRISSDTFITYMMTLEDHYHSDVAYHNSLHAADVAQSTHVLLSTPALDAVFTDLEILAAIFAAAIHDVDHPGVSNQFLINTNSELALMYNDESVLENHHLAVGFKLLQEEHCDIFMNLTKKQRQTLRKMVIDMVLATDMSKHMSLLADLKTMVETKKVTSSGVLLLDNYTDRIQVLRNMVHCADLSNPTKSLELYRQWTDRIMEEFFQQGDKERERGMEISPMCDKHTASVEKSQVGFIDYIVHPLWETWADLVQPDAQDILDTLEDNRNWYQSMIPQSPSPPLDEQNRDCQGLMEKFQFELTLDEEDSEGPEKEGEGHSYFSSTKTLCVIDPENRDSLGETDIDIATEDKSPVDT

Target: 3',5'-cyclic-AMP phosphodiesterase 4B (Homo sapiens, UniProt Q07343)
Experiment: Inhibition of human recombinant PDE4B-mediated hydrolysis of cAMP after 30 mins by fluorescence polarization assay
In short: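 Recombinant human enzyme levels were PDE3B 10 units/mL, PDE4B 400 units/mL and PDE11A 50 units/mL. Enzyme was preincubated with compound or vehicle for 30 min. Substrate was then added: 50 nM TAMRA-cGMP and/or 50 nM fluorescein-cAMP. Reactions ran 1.5 h at 30 °C, followed by IMAP binding reagent for 30 min at 30 °C. Fluorescence polarization was read. IC50 came from a 10-concentration series in quadruplicate, fitted to a four-parameter logistic.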

Which IC50 does the source give for `CN1CC(=O)N2[C@H](c3ccc4c(c3)OCO4)c3[nH]c4ccccc4c3C[C@@H]2C1=O` here?
Its IC50 is greater than 50 µM.
